{"source": "patent EP4847483A1", "about": "“SUPRAMOLECULAR 4-METHOXYSALICYLIC ACID TRANEXAMIC ACID IONIC SALT, PREPARATION METHOD THEREFOR, AND USE THEREOF” (dated 2026)", "key": {"[1]": {"test_system": "Human melanocytes", "test": "Cytotoxicity detection (MTT, cell viability)", "settings": "24 h"}, "[2]": {"test": "Transdermal effect test (Franz cell method)", "settings": "3 wt% aqueous solution, mouse skin, PBS pH ≈ 7.4, 32 °C"}, "[3]": {"test_system": "human skin", "test": "Human skin closed patch test", "settings": "3 wt% aqueous solution; for Number of persons with different skin reaction grades in the patch test: 0: grade 0 (Negative reaction); for Number of persons with different skin reaction grades in the patch test: 0 / Number of persons with different skin reaction grades in the patch test: 1 / Number of persons with different skin reaction grades in the patch test: 2 / Number of persons with different skin reaction grades in the patch test: 3 / Number of persons with different skin reaction grades in the patch test: 4: 40 subjects; for Number of persons with different skin reaction grades in the patch test: 1: grade 1 (Doubtful reaction); for Number of persons with different skin reaction grades in the patch test: 2: grade 2 (Weakly positive reaction); for Number of persons with different skin reaction grades in the patch test: 3: grade 3 (Strongly positive reaction); for Number of persons with different skin reaction grades in the patch test: 4: grade 4 (Extremely strong positive reaction)"}}}
{"molecule": "COc1ccc(C(=O)[O-])c(O)c1.[K+]", "values": [{"measurement": "Cell viability (%) Mean", "setting": "[1]; 0.0195 mg/mL", "value": 95.25, "unit": "%"}, {"measurement": "Cell viability (%) Mean", "setting": "[1]; 0.0391 mg/mL", "value": 94.25, "unit": "%"}, {"measurement": "Cell viability (%) Mean", "setting": "[1]; 0.0781 mg/mL", "value": 90.10, "unit": "%"}, {"measurement": "Cell viability (%) Mean", "setting": "[1]; 0.1563 mg/mL", "value": 85.17, "unit": "%"}, {"measurement": "Cell viability (%) Mean", "setting": "[1]; 0.3125 mg/mL", "value": 82.32, "unit": "%"}, {"measurement": "Cell viability (%) Mean", "setting": "[1]; 0.625 mg/mL", "value": 80.43, "unit": "%"}, {"measurement": "Permeation amount per unit area (µg/cm^2)", "setting": "[2]; 2h", "value": 6.57, "unit": "µg/cm^2"}, {"measurement": "Permeation amount per unit area (µg/cm^2)", "setting": "[2]; 5h", "value": 84.32, "unit": "µg/cm^2"}, {"measurement": "Permeation amount per unit area (µg/cm^2)", "setting": "[2]; 21h", "value": 500.79, "unit": "µg/cm^2"}, {"measurement": "Permeation amount per unit area (µg/cm^2)", "setting": "[2]; 24h", "value": 841.36, "unit": "µg/cm^2"}]}
{"molecule": "supramolecular 4-methoxysalicylic acid tranexamic acid ionic salt", "values": [{"measurement": "Cell viability (%) Mean", "setting": "[1]; 0.0195 mg/mL", "value": 102.68, "unit": "%"}, {"measurement": "Cell viability (%) Mean", "setting": "[1]; 0.0391 mg/mL", "value": 100.36, "unit": "%"}, {"measurement": "Cell viability (%) Mean", "setting": "[1]; 0.0781 mg/mL", "value": 96.94, "unit": "%"}, {"measurement": "Cell viability (%) Mean", "setting": "[1]; 0.1563 mg/mL", "value": 95.46, "unit": "%"}, {"measurement": "Cell viability (%) Mean", "setting": "[1]; 0.3125 mg/mL", "value": 94.16, "unit": "%"}, {"measurement": "Cell viability (%) Mean", "setting": "[1]; 0.625 mg/mL", "value": 88.49, "unit": "%"}, {"measurement": "Number of persons with different skin reaction grades in the patch test: 0", "setting": "[3]; 0.5h after removal", "value": 40}, {"measurement": "Number of persons with different skin reaction grades in the patch test: 0", "setting": "[3]; 24h after removal", "value": 40}, {"measurement": "Number of persons with different skin reaction grades in the patch test: 0", "setting": "[3]; 48h after removal", "value": 40}, {"measurement": "Number of persons with different skin reaction grades in the patch test: 1", "setting": "[3]; 0.5h after removal", "value": 0}, {"measurement": "Number of persons with different skin reaction grades in the patch test: 1", "setting": "[3]; 24h after removal", "value": 0}, {"measurement": "Number of persons with different skin reaction grades in the patch test: 1", "setting": "[3]; 48h after removal", "value": 0}, {"measurement": "Number of persons with different skin reaction grades in the patch test: 2", "setting": "[3]; 0.5h after removal", "value": 0}, {"measurement": "Number of persons with different skin reaction grades in the patch test: 2", "setting": "[3]; 24h after removal", "value": 0}, {"measurement": "Number of persons with different skin reaction grades in the patch test: 2", "setting": "[3]; 48h after removal", "value": 0}, {"measurement": "Number of persons with different skin reaction grades in the patch test: 3", "setting": "[3]; 0.5h after removal", "value": 0}, {"measurement": "Number of persons with different skin reaction grades in the patch test: 3", "setting": "[3]; 24h after removal", "value": 0}, {"measurement": "Number of persons with different skin reaction grades in the patch test: 3", "setting": "[3]; 48h after removal", "value": 0}, {"measurement": "Number of persons with different skin reaction grades in the patch test: 4", "setting": "[3]; 0.5h after removal", "value": 0}, {"measurement": "Number of persons with different skin reaction grades in the patch test: 4", "setting": "[3]; 24h after removal", "value": 0}, {"measurement": "Number of persons with different skin reaction grades in the patch test: 4", "setting": "[3]; 48h after removal", "value": 0}, {"measurement": "subjects with adverse skin reactions", "setting": "[3]; of the 40 subjects, human skin closed patch test", "value": 0}, {"measurement": "Permeation amount per unit area (µg/cm^2)", "setting": "[2]; 2h, listed as Experimental Example 1", "value": 12.34, "unit": "µg/cm^2"}, {"measurement": "Permeation amount per unit area (µg/cm^2)", "setting": "[2]; 2h, listed as Experimental Example 2", "value": 11.39, "unit": "µg/cm^2"}, {"measurement": "Permeation amount per unit area (µg/cm^2)", "setting": "[2]; 5h, listed as Experimental Example 1", "value": 123.46, "unit": "µg/cm^2"}, {"measurement": "Permeation amount per unit area (µg/cm^2)", "setting": "[2]; 5h, listed as Experimental Example 2", "value": 115.63, "unit": "µg/cm^2"}, {"measurement": "Permeation amount per unit area (µg/cm^2)", "setting": "[2]; 21h, listed as Experimental Example 1", "value": 1759.46, "unit": "µg/cm^2"}, {"measurement": "Permeation amount per unit area (µg/cm^2)", "setting": "[2]; 21h, listed as Experimental Example 2", "value": 1345.67, "unit": "µg/cm^2"}, {"measurement": "Permeation amount per unit area (µg/cm^2)", "setting": "[2]; 24h, listed as Experimental Example 1", "value": 2230.47, "unit": "µg/cm^2"}, {"measurement": "Permeation amount per unit area (µg/cm^2)", "setting": "[2]; 24h, listed as Experimental Example 2", "value": 1852.64, "unit": "µg/cm^2"}]}
{"molecule": "NC[C@H]1CC[C@H](C(=O)O)CC1", "values": [{"measurement": "Permeation amount per unit area (µg/cm^2)", "setting": "[2]; 2h", "value": 10.96, "unit": "µg/cm^2"}, {"measurement": "Permeation amount per unit area (µg/cm^2)", "setting": "[2]; 5h", "value": 113.29, "unit": "µg/cm^2"}, {"measurement": "Permeation amount per unit area (µg/cm^2)", "setting": "[2]; 21h", "value": 1132.54, "unit": "µg/cm^2"}, {"measurement": "Permeation amount per unit area (µg/cm^2)", "setting": "[2]; 24h", "value": 1354.74, "unit": "µg/cm^2"}]}
